Measured values reported in US8536196B2, “Substituted 1,3-dioxanes useful as PPAR modulators” (Evolva SA, priority 2007, dated 2013).

Target: T1, Thromboxane synthase (Homo sapiens, UniProt P24557)
T1 sequence (P24557 1-533): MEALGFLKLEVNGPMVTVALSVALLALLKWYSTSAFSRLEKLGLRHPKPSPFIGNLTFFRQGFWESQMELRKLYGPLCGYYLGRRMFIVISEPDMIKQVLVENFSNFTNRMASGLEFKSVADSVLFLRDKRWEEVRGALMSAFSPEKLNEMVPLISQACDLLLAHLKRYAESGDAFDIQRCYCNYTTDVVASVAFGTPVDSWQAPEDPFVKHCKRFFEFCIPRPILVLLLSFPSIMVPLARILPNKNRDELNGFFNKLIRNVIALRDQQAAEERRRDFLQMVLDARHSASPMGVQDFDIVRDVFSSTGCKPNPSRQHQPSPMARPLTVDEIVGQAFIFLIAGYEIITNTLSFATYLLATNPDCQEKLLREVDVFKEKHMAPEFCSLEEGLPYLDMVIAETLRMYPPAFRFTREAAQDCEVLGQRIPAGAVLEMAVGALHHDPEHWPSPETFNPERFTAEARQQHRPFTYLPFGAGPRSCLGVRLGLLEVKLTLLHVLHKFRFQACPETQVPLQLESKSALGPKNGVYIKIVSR
Assay: Human platelet thromboxane synthase assay
Assay type: biochemical

IC50: 12.1 µM
Structure (SMILES): O=C(O)CC/C=C\C[C@H]1COC(c2ccccc2Cl)O[C@H]1c1ccccc1O (single isomer, unassigned) [Compound A]
